# In ChEMBL document CHEMBL3217546, “The synthesis and receptor binding affinities of DDD-016, a novel, potential, atypical antipsychotic” (Medchemcomm, 2012):
# Sequences of proteins named here, by UniProt entry; tags and fusion partners are left off. A change or cut given only in a name is not applied to a line headed by its entry.
# UniProt P28566: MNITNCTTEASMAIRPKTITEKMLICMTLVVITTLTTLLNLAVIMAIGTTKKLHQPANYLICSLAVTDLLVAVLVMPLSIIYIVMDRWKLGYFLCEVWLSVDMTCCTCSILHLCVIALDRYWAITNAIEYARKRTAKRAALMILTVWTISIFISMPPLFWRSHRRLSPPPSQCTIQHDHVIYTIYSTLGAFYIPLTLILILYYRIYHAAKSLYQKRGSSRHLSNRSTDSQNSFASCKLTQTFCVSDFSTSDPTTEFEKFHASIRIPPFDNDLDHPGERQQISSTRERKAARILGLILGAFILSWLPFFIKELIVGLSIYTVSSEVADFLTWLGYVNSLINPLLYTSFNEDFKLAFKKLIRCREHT
# UniProt P28221: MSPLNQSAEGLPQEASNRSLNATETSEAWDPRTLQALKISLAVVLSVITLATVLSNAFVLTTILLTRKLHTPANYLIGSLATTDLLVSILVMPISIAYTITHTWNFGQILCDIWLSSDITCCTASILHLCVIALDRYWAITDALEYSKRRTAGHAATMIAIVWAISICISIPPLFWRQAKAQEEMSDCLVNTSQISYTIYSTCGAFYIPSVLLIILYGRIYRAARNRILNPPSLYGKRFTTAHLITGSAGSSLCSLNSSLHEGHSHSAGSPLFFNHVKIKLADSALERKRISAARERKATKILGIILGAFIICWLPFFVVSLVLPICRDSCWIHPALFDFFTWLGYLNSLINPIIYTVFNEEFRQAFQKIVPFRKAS
# Assays:
# [1] = target: 5-hydroxytryptamine receptor 1E (Homo sapiens, UniProt P28566)
# [2] = target: 5-hydroxytryptamine receptor 1D (Homo sapiens, UniProt P28221)
Ki [2] [nM],Structure (SMILES),Ki [1] [nM]
,Cc1nc2n(c(=O)c1CCN1CCC(c3noc4cc(F)ccc34)CC1)CCCC2 [RISPERIDONE],> 1000
> 1000,OCCOCCN1CCN(C2=Nc3ccccc3Sc3ccccc32)CC1 [QUETIAPINE],
